This is an account of results in BindingDB's records for 16686532 (Universit&#224, 2006).

By UniProt entry, the sequences of proteins in these tests, tags left out.
UniProt P23944, whole entry, looked up: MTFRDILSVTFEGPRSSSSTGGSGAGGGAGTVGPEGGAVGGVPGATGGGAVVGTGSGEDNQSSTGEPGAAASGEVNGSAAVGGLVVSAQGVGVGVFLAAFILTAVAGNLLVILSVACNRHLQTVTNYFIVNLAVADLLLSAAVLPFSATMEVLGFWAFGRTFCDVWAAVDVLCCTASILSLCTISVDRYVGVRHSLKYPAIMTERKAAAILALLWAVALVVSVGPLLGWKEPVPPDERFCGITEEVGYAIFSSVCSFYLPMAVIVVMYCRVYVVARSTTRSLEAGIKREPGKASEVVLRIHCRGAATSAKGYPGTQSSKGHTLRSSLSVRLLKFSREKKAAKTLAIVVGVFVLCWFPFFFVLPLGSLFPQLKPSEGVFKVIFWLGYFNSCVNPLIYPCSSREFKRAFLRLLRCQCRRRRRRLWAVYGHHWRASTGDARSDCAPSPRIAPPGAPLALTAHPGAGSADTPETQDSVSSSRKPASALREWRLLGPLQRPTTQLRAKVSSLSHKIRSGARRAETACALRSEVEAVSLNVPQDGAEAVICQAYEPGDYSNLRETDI

As usually defined, the EC50 is the concentration giving half of the maximal effect.

This experiment deals with Alpha-1D adrenergic receptor (Rattus norvegicus, UniProt P23944). Put plainly: Vasodilator activity assessed as ability to relax phenylephrine-induced contraction of Wistar rat aortic strips.

For the compound `CCCO[N+](=O)[O-]`, the EC50 was 41 µM.
